Data on six compounds can be found in patent US20230115515A1, “PYRAZOLYLPROPANAMIDE COMPOUNDS AND USES THEREOF FOR TREATMENT OF PROSTATE CANCER” (priority 2020, published 2023).

Chains of the proteins cited; added tags and fusions are not shown. Lines headed by an entry give the natural chain unless they say otherwise; changes in a name come on top. Residues count along the entry.
UniProt P15207, 643-902: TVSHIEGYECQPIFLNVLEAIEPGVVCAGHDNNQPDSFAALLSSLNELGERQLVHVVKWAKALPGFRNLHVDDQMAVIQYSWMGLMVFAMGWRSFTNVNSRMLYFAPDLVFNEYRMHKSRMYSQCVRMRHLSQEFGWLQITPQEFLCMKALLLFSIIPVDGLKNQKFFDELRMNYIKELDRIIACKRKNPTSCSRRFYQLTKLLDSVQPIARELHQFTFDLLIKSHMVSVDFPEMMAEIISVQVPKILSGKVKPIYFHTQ
UniProt P06401: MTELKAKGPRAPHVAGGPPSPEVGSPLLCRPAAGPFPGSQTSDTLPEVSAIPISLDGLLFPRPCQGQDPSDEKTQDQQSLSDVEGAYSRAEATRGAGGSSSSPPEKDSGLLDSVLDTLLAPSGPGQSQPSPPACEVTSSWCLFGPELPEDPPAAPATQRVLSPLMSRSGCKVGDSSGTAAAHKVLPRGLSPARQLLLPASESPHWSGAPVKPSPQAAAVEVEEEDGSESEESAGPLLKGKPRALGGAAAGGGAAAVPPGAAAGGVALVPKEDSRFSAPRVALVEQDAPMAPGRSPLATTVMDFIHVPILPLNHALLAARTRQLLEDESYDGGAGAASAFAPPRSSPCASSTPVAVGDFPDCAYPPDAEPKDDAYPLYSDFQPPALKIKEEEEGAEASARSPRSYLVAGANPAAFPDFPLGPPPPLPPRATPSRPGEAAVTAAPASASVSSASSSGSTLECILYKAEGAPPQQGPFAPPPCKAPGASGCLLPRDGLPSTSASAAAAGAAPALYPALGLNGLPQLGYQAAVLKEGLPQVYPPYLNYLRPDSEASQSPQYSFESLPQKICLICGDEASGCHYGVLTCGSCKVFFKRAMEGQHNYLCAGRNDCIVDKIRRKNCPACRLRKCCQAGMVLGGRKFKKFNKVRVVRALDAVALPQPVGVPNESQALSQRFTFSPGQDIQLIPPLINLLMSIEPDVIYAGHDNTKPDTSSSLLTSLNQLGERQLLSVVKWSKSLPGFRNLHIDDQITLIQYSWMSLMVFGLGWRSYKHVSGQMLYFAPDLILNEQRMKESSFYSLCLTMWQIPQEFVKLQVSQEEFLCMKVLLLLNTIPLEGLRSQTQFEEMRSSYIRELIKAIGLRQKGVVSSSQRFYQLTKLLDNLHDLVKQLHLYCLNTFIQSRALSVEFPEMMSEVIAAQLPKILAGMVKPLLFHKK

Bounds are passed on as bounds.

Series [1] has as its target recombinant LBD of wildtype AR (wtAR) (Rattus norvegicus, UniProt P15207). The experiment in a line: biochemical.
Series [2] can be described thus: Metabolic stability in rat liver microsomes (phase I and II). Format: in vitro ADME. (In general: Liver microsomes are a subcellular fraction often used to study metabolism.)
Series [3] can be described thus: Metabolic stability in human liver microsomes (phase I and II). It counts as in vitro ADME.
In the next series the target is wtPR (Homo sapiens, UniProt P06401). The note with it: read-out: wtPR IC50.

For orientation: Ki means the dissociation constant of the complex between target and ligand, obtained from inhibition or displacement. Consider `C[C@](O)(Cn1cc(C#CCCO)cn1)C(=O)Nc1ccc(C#N)c(C(F)(F)F)c1` [Compound 16r, (S)—N-(4-Cyano-3-(trifluoromethyl)phenyl)-2-hydroxy-3-(4-(4-hydroxybut-1-yn-1-yl)-1H-pyrazol-1-yl)-2-methylpropanamide], for which the Ki in series [1] was > 10 µM.

Take `CC(=O)Nc1cnn(C[C@](C)(O)C(=O)Nc2ccc(C#N)c(C(F)(F)F)c2)c1` [Compound 16v, (S)-3-(4-Acetamido-1H-pyrazol-1-yl)-N-(4-cyano-3-(trifluoromethyl)phenyl)-2-hydroxy-2-methylpropanamide]: the Ki in series [1] is > 10 µM.

Take `C[C@](O)(Cn1cc(NC(=O)CCl)cn1)C(=O)Nc1ccc(C#N)c(C(F)(F)F)c1` [Compound 16w, (S)-3-(4-(2-Chloroacetamido)-1H-pyrazol-1-yl)-N-(4-cyano-3-(trifluoromethyl)phenyl)-2-hydroxy-2-methylpropanamide]: the Ki in series [1] is > 10 µM. A word on the half-life: it is the time needed for the level to fall by half in the phase considered. A high value points to slow loss. By IC50 is commonly meant the concentration that gives 50% inhibition. In the case of `C[C@](O)(Cn1cc(F)cn1)C(=O)Nc1cnc(C#N)c(C(F)(F)F)c1` [Compound 21a], in series [2] (cofactors for phases I and II), the “RLM T1/2” value is >2 h. Further, the half-life at 1 µM in series [2] (rat, microsomes, pH 7.5) was > 2 h; in series [3] (human, microsomes, pH 7.5) it was > 2 h. Also, in series [3] (cofactors for phases I and II), the “HLM T1/2” value was >2 h. In addition, on wtPR, the IC50 is 0.235 µM. Regarding `C[C@](O)(Cn1cc(F)cn1)C(=O)Nc1ccc(C(N)=O)nc1` [Compound 21g, (S)-5-(3-(4-Fluoro-1H-pyrazol-1-yl)-2-hydroxy-2-methylpropanamido)picolinamide], the Ki in series [1] is > 10 µM. As to `C[C@](O)(Cn1cc(F)cn1)C(=O)Nc1ccc2ncncc2c1` [Compound 21h, (S)-3-(4-Fluoro-1H-pyrazol-1-yl)-2-hydroxy-2-methyl-N-(quinazolin-6-yl)propanamide], the Ki in series [1] was > 10 µM.
